Protein sequences, listed by entry. Tags and fused reporters are not part of them.
UniProt P35462, whole entry: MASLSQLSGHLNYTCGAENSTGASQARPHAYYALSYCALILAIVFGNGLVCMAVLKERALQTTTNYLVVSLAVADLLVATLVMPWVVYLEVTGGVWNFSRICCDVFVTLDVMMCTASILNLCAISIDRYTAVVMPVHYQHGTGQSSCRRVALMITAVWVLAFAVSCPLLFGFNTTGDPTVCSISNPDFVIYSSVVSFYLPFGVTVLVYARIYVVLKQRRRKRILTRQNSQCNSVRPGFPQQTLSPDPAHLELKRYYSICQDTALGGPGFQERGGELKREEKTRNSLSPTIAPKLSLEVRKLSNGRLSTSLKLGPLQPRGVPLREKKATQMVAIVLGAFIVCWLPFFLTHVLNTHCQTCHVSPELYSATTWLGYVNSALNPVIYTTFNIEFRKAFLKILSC

According to ChEMBL document CHEMBL3763143, “Novel morpholine scaffolds as selective dopamine (DA) D3 receptor antagonists” (Bioorg Med Chem Lett, 2016):

Experiments:
[1] = target: T1, D(3) dopamine receptor (Homo sapiens, UniProt P35462); assay: Agonist activity at human dopamine D3 receptor expressed in CHO cells after 90 mins by [35S]-GTPgamma S assay; format: cell-based
[2] = target: T1, D(3) dopamine receptor; assay: Antagonist activity at human dopamine D3 receptor expressed in CHO cells after 90 mins by [35S]-GTPgamma S assay; format: cell-based

Compound: Cc1ncoc1-c1nnc(SCCCN2CCOC(c3ccc(C(F)(F)F)cc3)C2)n1C (racemic)
- Ki [1]: > 10 µM

Compound: Cc1ncoc1-c1nnc(SCCCN2CCOC(c3ccc(C(F)(F)F)cc3)C2)n1C (stereo in doubt; 9)
- Ki [2]: 0.0251 µM
